{
  "source": "PubChem BioAssay (EPA / NIEHS)",
  "note": "The entries are a selection whose mix differs from that of the whole data set. Calls of active or inactive are those of the source. The calls were made as follows: active = hit-call score of the fitted dose curve at least 0.9, where 1 is the maximum; inactive = score below 0.9.",
  "data": [
    {"assay": "ATG_RORE_CIS: Attagene CIS-FACTORIAL HepG2 Assay for human RAR-related Orphan Receptor Element (RORE) (AID 2282959)", "settings": "HepG2 Attagene cis-factorial RORE reporter, mRNA; actives raise or lower the signal", "values": [
      {"smiles": "Cc1ccc2c(c1)C(=O)OC2=O", "outcome": "inactive"},
      {"smiles": "OC[C@H]1O[C@@H](O[C@H]2[C@H](O)[C@@H](O)[C@H](O)O[C@@H]2CO)[C@H](O)[C@@H](O)[C@H]1O", "outcome": "inactive"},
      {"smiles": "NCCNc1cccc2ccccc12", "AC50": "active: 55.6 µM"},
      {"smiles": "COc1cc(Cl)c(OC)cc1N", "outcome": "inactive"},
      {"smiles": "CCN(Cc1cccc(S(=O)(=O)O)c1)c1ccc(C(=C2C=CC(=[N+](CC)Cc3cccc(S(=O)(=O)[O-])c3)C=C2)c2ccccc2)cc1", "outcome": "inactive"},
      {"smiles": "CC(c1cc2ccccc2s1)N(O)C(N)=O", "note": "(centres undefined)", "outcome": "inactive"},
      {"smiles": "CC(C)Nc1nc(N)nc(Cl)n1", "outcome": "inactive"},
      {"smiles": "C=CCOC(=O)CCC1CCCCC1", "outcome": "inactive"},
      {"smiles": "CC(=O)[C@@]1(O)CC[C@H]2[C@@H]3C[C@H](C)C4=CC(=O)C=C[C@]4(C)[C@@]3(F)[C@@H](O)C[C@@]21C", "outcome": "inactive"},
      {"smiles": "CC(C)(CO)[C@@H](O)C(=O)NCCC(=O)O", "outcome": "inactive"},
      {"smiles": "O=S(=O)(O)c1ccc2ccccc2c1", "outcome": "inactive"},
      {"smiles": "CCC(C)(C)C1CCC(O)CC1", "note": "(centres undefined)", "outcome": "inactive"},
      {"smiles": "Cc1cccc([N+](=O)[O-])c1C", "outcome": "inactive"},
      {"smiles": "CCCCCCCCCCCCCCOS(=O)(=O)O", "outcome": "inactive"},
      {"smiles": "COC(OC)(C(=O)c1ccccc1)c1ccccc1", "AC50": "active: 41.8 µM"},
      {"smiles": "O=C1CCc2ccccc2O1", "outcome": "inactive"},
      {"smiles": "CCOC(=O)[C@H](O)[C@@H](O)C(=O)OCC", "outcome": "inactive"},
      {"smiles": "Cc1noc(NS(=O)(=O)c2ccc(N)cc2)c1C", "outcome": "inactive"},
      {"smiles": "Nc1ccc(S(=O)(=O)O)c(N)c1", "outcome": "inactive"},
      {"smiles": "CCOc1ccc(N=Nc2ccc(C=Cc3ccc(N=Nc4ccc(OCC)cc4)cc3S(=O)(=O)O)c(S(=O)(=O)O)c2)cc1", "outcome": "inactive"},
      {"smiles": "COC(=O)CC(=O)OC", "outcome": "inactive"},
      {"smiles": "CC(CCO)CCc1ccccc1", "note": "(centres undefined)", "outcome": "inactive"},
      {"smiles": "CCCCCC=O", "outcome": "inactive"},
      {"smiles": "CC(=O)OC1C2(C)CCC(C2)C1(C)C", "note": "(centres undefined)", "outcome": "inactive"},
      {"smiles": "NCC1CCCC(CN)C1", "note": "(centres undefined)", "outcome": "inactive"},
      {"smiles": "CCCCCCCCCCCCCO", "outcome": "inactive"},
      {"smiles": "C=CCCC(=O)/C=C/C1C(C)=CCCC1(C)C", "note": "(centres undefined)", "outcome": "inactive"},
      {"smiles": "CCCCCCCCCCC=CC#N", "outcome": "inactive"},
      {"smiles": "CC(=O)CC(=O)Nc1ccccc1", "outcome": "inactive"},
      {"smiles": "CC1(C)C2=CCCC(C)(C)[C@]23CC[C@H]1C3", "outcome": "inactive"},
      {"smiles": "CCCCCCOCCO", "outcome": "inactive"},
      {"smiles": "CN(C)c1cccc(O)c1", "outcome": "inactive"},
      {"smiles": "CCOC(=O)C(C)Oc1ccc(Oc2nc3ccc(Cl)cc3o2)cc1", "note": "(centres undefined)", "outcome": "inactive"},
      {"smiles": "CCc1cccc(C)c1N(C(=O)CS(=O)(=O)O)C(C)COC", "note": "(centres undefined)", "outcome": "inactive"},
      {"smiles": "N#Cc1ccc(C(c2ccc(C#N)cc2)n2cncn2)cc1", "outcome": "inactive"},
      {"smiles": "O=C(C(=O)c1ccccc1)c1ccccc1", "outcome": "inactive"},
      {"smiles": "COC(=O)c1ccc([N+](=O)[O-])cc1", "outcome": "inactive"},
      {"smiles": "Cc1ccc(S(=O)(=O)O)cc1C", "outcome": "inactive"},
      {"smiles": "CCCCCCCCCCC(CO)CCCCCCCC", "note": "(centres undefined)", "outcome": "inactive"}
    ]}
  ]
}
